Data published in ChEMBL document CHEMBL2086345, “Metabotropic glutamate receptor 5 negative allosteric modulators as novel tools for in vivo investigation” (ACS Med Chem Lett, 2012).

Chains of the proteins cited; added tags and fusions are not shown.
UniProt P31424, whole entry: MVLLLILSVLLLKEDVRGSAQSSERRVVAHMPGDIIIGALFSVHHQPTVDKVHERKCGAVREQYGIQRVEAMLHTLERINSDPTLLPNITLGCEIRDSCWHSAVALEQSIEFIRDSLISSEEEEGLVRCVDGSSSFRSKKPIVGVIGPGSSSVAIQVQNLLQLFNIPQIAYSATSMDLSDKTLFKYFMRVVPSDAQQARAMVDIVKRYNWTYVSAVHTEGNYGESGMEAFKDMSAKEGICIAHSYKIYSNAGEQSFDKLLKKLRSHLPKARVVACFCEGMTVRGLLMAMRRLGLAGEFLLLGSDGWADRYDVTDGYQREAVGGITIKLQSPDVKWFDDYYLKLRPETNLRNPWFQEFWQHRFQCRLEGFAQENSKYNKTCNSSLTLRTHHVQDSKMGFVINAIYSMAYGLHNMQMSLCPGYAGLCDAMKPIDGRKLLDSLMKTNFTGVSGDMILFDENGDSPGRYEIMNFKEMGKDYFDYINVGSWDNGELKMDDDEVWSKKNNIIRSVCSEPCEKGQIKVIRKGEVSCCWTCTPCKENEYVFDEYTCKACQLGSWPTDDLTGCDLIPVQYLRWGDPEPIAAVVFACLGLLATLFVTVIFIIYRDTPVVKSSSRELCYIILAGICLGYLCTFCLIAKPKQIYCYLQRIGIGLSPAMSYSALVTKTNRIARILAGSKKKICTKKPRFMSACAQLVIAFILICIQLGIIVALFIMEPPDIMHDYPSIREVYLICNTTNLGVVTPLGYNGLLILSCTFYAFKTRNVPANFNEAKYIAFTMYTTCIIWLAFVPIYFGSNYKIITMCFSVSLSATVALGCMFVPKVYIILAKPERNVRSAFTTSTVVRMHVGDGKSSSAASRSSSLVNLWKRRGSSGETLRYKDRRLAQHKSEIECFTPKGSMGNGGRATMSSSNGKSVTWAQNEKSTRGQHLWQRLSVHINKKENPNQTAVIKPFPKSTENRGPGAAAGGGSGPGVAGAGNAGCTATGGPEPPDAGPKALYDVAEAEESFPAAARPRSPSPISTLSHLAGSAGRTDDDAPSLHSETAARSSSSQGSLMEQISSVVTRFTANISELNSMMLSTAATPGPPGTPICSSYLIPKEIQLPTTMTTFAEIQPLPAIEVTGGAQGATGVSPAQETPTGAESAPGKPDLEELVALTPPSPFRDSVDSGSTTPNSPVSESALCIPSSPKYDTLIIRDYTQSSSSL

Columns and labels:
[1] = target: T1, Metabotropic glutamate receptor 5 (Rattus norvegicus, UniProt P31424); assay: Inverse agonist activity at rat mGluR5 expressed in HEK293A cells coexpressing Gqalpha assessed as inhibition of basal D-myo-inositol 1 production by ELISA
[2] = target: T1, Metabotropic glutamate receptor 5; assay: Displacement of [3H]MPEP from mGluR5 in Sprague-Dawley rat brain membrane after 60 mins by liquid scintillation counting; type: cell membranes
In short: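 Competitive binding against [³H]MPEP in membranes prepared from rat brain. Ki was derived from competitive inhibition of radioligand binding.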

SMILES	IC50 [1] [nM]	Ki [2] [nM]
Cc1nc(C#Cc2cccnc2)cs1	110	42
Cc1cccc(C#Cc2ccccc2)n1	31	16.3
